# Antibody variant affinities, Ab-14 light chain, assay B

The target is the same throughout: PDVDLGDISGINAS, from the HR2 region of SARS-CoV-2 spike.

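The parent was found by panning a naive human phage display library on the peptide. These sequences belong to a second round, designed from the earlier measurements on random variants of the parent. Group labels follow the data file (Ctrl: baseline library sampled from a position-specific scoring matrix, with some repeated check sequences; En: ensemble of fine-tuned language models; GP: Gaussian process model; GPLM: also part of the Gaussian process libraries; HC: hill climbing; Gen: genetic algorithm; Gibbs: Gibbs sampling; a sequence that several methods proposed may carry one label only). AlphaSeq pools MATa yeast showing the antibodies with MATalpha yeast showing the peptide. Binding brings cells together so that they mate, and sequencing counts the barcode pairs among the diploids. Read counts were normalised to the haploid input and turned into Kd by a linear fit to BCL2-family pairs of known affinity, for each replicate. Mating was done six times.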

Each scFv is VH, the linker GGGGSGGGGSGGGGS, VL, as in the parent Ab-14, and differs from it in the CDRs of the light chain only.
VH: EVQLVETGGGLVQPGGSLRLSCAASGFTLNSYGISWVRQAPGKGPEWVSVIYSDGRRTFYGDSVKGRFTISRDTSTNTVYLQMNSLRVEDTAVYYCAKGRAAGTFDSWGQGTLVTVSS
VL: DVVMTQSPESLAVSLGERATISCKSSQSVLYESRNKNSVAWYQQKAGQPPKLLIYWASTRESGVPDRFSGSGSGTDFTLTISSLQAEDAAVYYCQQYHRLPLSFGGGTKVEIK

The parent's light chain CDRs are KSSQSVLYESRNKNSVA, WASTRES, QQYHRLPLS; each variant's own CDRs replace them letter for letter. Values are log10 of the apparent Kd in nM; lower means stronger binding. Averages over replicates are reported, and they cover detected replicates only. "not detected" means that the variant was in the library but no mating with the target was seen in any replicate; the authors take this as a sign of poor binding, and no number exists. Nonspecific signal, from three strains lacking the peptide, appeared in 4% of pairings of all light chain designs, centred on 2.64 (5% of these signals below 1.59); values are not corrected for it. In the paper, a design with two or fewer of six values counts as a poor binder. A sequence measured in both rounds can read differently, since the two assays cover different ranges.

| # | CDR-L1 | CDR-L2 | CDR-L3 | group | mean log10 Kd (nM) | detected |
|---|---|---|---|---|---|---|
| 1 | KSSQSVLYESENKNSVA | EASTREM | QQYHRWPLS | Ctrl | 2.17 | 5/6 |
| 2 | KTSQSALYEFRNKNSVA | WASTRES | QQYHRLHLS | Ctrl | not detected | 0/6 |
| 3 | KLSQTVLYESRNKNSVA | GASTREC | QQYHRLPLS | Ctrl | 0.90 | 6/6 |
| 4 | KSSQSWLGMDGNKNSVA | QASQRMS | QQYHRLPLS | GP_Gibbs | 0.08 | 6/6 |
| 5 | KLSQVTNSEHKVKNSIA | EMVTREK | QQYDRLPLI | En_HC | 0.98 | 6/6 |
| 6 | MISQLMNIGTFAINSVA | QASLRCN | QQYDRLPLI | En_Gen | 2.80 | 3/6 |
| 7 | KASQSWLYEDRVKNSVA | GASTRES | QQYHRLPLS | GP_HC | 0.27 | 6/6 |
| 8 | KVFPSELGLSRNKNSVA | DASTRES | QQYHRLPLS | GP_Gibbs | -0.27 | 6/6 |
| 9 | KLSQSDLYESRNKNSVA | EASQREQ | QQYHRLPLS | GP_Gen | -0.02 | 6/6 |
| 10 | KITATMRFEQKNTNNIA | EVSMRTK | QQYVRLPLA | En_Gen | -0.30 | 6/6 |
| 11 | KSSNSVLYESRNTNSVA | DASTRES | QLYHRLPLS | Ctrl | 1.04 | 6/6 |
| 12 | KSSQSVLYESFNKNSVA | EASTRES | QQYHRLPLS | Ctrl | 0.68 | 6/6 |
| 13 | KLSQSVQYESRNKNSVA | HASTRES | QQYHRLPLS | GP_Gen | -0.01 | 6/6 |
| 14 | KFSQMVNSMSVSHSAVA | EMSTRPE | QQYNRLPLS | En_Gen | 0.25 | 6/6 |
| 15 | KISGMMQKESKNKNSVA | EMVNRES | QQYDRLPLS | En_HC | 1.54 | 6/6 |
| 16 | KVSQSVLYEDRNKNSVA | HASTRES | QQYHRLPLS | GP_Gen | -0.12 | 6/6 |
| 17 | KSSQSVLEESRNKQSLA | DASTLES | QQYHRLPLK | Ctrl | 0.49 | 6/6 |
| 18 | KITFQGMLSDAHQYSIA | QTNVYSQ | QQYDRLPLD | En_Gibbs | 2.57 | 1/6 |
| 19 | MIEEGQLGENKNSSNIA | SQDQKTD | QQYQRLPLI | En_Gibbs | 1.77 | 3/6 |
| 20 | KSSQSILYESVNKNSVA | NASTRES | QQYHRLPLS | GPLM_HC | 0.49 | 6/6 |
| 21 | TIAQSMVYLSNLKNSIA | QAETRED | QQYHRLPIS | En_HC | 0.73 | 6/6 |
| 22 | KMSPSELYLDRNCNAVA | QASQRES | QQYHRLPLS | GP_Gibbs | 0.62 | 6/6 |
| 23 | KLSQSVLYESMNKNSVA | NASTRMS | QQYHRLPLS | GP_Gen | 0.01 | 6/6 |
| 24 | KLIQSVAMSSRNKDSIA | DNSTRYS | QQYHRLPLS | En_HC | 1.18 | 6/6 |
| 25 | SSSQSVLYESRNKNSVA | HASTRES | DQYHRLPLS | Ctrl | not detected | 0/6 |
| 26 | ALGDVTRMESNKKNSIA | DMSTREA | QQYHRLPLS | En_HC | 0.18 | 6/6 |
| 27 | KSSQSVLEESRNKNSVA | WASMRES | QQYHRLPLS | Ctrl | 1.16 | 6/6 |
| 28 | KLPQSYLYESRNKNAVA | NASTRES | QQYHRLPLS | GP_Gen | -0.39 | 6/6 |
| 29 | KTEVSQDYESRNQNSVA | NASQRES | QQYHRLPLS | GP_Gibbs | 0.00 | 6/6 |
| 30 | SLTAHVEEAKGAENSVA | QAVMLES | QQYHQLPLM | En_Gibbs | 0.83 | 6/6 |
| 31 | KSSQSVWYESRNKNSVA | EASTREQ | QQYHRLPLS | GP_Gen | 0.39 | 6/6 |
| 32 | KLDQSELYESRNKNSVA | GASTRES | QQYHRLPLS | GP_Gen | -0.46 | 6/6 |
| 33 | TISQMWFLESKNKNNVA | EESTRMD | QSYFRLPLS | En_HC | 0.32 | 6/6 |
| 34 | KLSQSQLYESRNKNNVA | SASHREH | QQYHRLPLS | GP_Gibbs | 0.01 | 6/6 |
| 35 | TLYMGPTEARDSKHAIA | NMNERDR | QQYHRLPLV | En_Gibbs | 0.40 | 6/6 |
| 36 | KSSGSWLYESRNFWSVA | GASTRES | QQYHRLPLS | GP_HC | 0.91 | 6/6 |
| 37 | MLGATVEGEMRARNSVA | HNSMREN | QQYDRLPLA | En_Gen | 2.26 | 4/6 |
| 38 | TISQLMLYEQRNKNNVA | GTSTRES | QCYHRLPLS | En_HC | 0.50 | 6/6 |
| 39 | KSSGSYLYESRNKNSVA | EASTRES | QQYHRLPLS | GP_HC | -0.29 | 6/6 |

Further variants, results first:

| # | mean log10 Kd (nM) | detected | CDR-L1 | CDR-L2 | CDR-L3 | group |
|---|---|---|---|---|---|---|
| 40 | -0.15 | 6/6 | KLSQSELYESRNKNSVA | NASTRMS | QDYHRLPLS | GP_Gen |
| 41 | 0.17 | 6/6 | ALSQSMDMTSRAKNSVA | DLTTREN | QQYHRLPLS | En_HC |
| 42 | -0.33 | 6/6 | KLSQSVLYESRNKNSVA | EASTRME | QQYHRLPLS | GP_Gen |
| 43 | 0.63 | 6/6 | KLRWDDMPHFETRSNVA | DATMRVH | QQYNRLPLD | En_Gibbs |
| 44 | 2.48 | 5/6 | MLSDIVKMGSRNTNSVA | DNSTRGS | QQYDRLPLS | En_HC |
| 45 | not detected | 0/6 | KSQQSVLYESRNFNSVA | HASTRED | QQYHRLPLS | GP_HC |
| 46 | 2.18 | 6/6 | TIGGTLMYGVMNRSNVA | EVSQRLN | QQYDRLPLI | En_Gen |
| 47 | 2.78 | 3/6 | KSSQSTLYESRNSNSVA | NASTRES | TQYHRLPLS | Ctrl |
| 48 | not detected | 0/6 | KSSQSVLYESRNKNSVA | WASTNES | QQYARLPLS | Ctrl |
| 49 | 1.45 | 6/6 | FIQGNYNDKYQASNSIA | DEAHLMA | QQYDLLPLS | En_Gibbs |
| 50 | 1.26 | 6/6 | HMMMYEDMQQNIQCGVA | DATTRNT | QQYQRLPLS | En_Gibbs |
| 51 | 0.12 | 6/6 | KLQQSVGYESRNKNSVA | NASTRMS | QQYHRLPLS | GP_Gen |
| 52 | 2.83 | 3/6 | KSSQSVLYESFNKNSVA | WATTRES | QTYHRLPLS | Ctrl |
| 53 | 1.32 | 6/6 | KVSEFMKGLMMRTDSIA | DNNTRGA | QQYDRLPLS | En_Gen |
| 54 | 1.14 | 6/6 | KMRVSLLQGIYRADSIA | STDIRVL | QQYYHLPLA | En_Gibbs |
| 55 | 1.25 | 6/6 | HFSQMLEPGAQNFNAVA | HGDRVTE | QQYHKLPLA | En_Gibbs |
| 56 | 0.76 | 6/6 | KITATMRFEQKESNNIA | EVTTRSK | QQYFRLPLS | En_Gen |
| 57 | 2.52 | 6/6 | KLYQSVLYESRNKNSVA | HASTRED | KQYHRLPLS | GP_HC |
| 58 | -0.31 | 6/6 | KVEQGVLYESRNKNSVA | GASVRES | QQYHRLPLS | GP_HC |
| 59 | 0.84 | 6/6 | IITQSVMQESRNKSNVA | NTSERES | QQYNRLPLI | En_HC |
| 60 | 2.33 | 2/6 | SLMNLMGGIEEMKNSIA | NQETGMR | QQYAHLPLV | En_Gibbs |
| 61 | -0.23 | 6/6 | KISQSWLYESRNKNSVA | GASTREV | QQYHRLPLS | GP_HC |
| 62 | 0.27 | 6/6 | KLQQSVLYESRNKNSVA | QASTRLS | QQYHRLPLS | GP_Gen |
| 63 | not detected | 0/6 | KFHQSVLYESRNKNSVA | WASTRES | LQYAELPLS | Ctrl |
| 64 | -0.15 | 6/6 | KLSQSELYESRNKNSVA | NASQRLS | QQYHRLPLS | GP_Gen |
| 65 | 2.15 | 4/6 | KSSQSVLVETRNKNSVA | WASTRES | QQYHRLPLS | Ctrl |
| 66 | 0.24 | 6/6 | KSSQSVLYEERNKNSVA | QASTRES | QQYHHLPLS | Ctrl |
| 67 | 1.63 | 6/6 | KISFSVLYESRNKNNVA | WASTRES | QQYHRLPLS | Ctrl |
| 68 | 1.73 | 6/6 | KSSQSVLYESRNKNSVA | YASTRAS | QQYHRLPLS | Ctrl |
| 69 | -0.26 | 6/6 | KLSQSMLYESRNKNSVA | SASTRES | QQYHRLPLS | GP_Gen |
| 70 | -0.03 | 6/6 | KLSQSFLYESRNKNSVA | HASTRES | QQYHRLPLS | GP_Gen |
| 71 | 0.29 | 6/6 | KSSQSVLYESTNKNSVA | GASTRES | QQYHRLPLS | Ctrl |
| 72 | 2.71 | 5/6 | RLTHNTFVLDRDKYSIA | DSEVKME | QQYNQLPLS | En_Gibbs |
| 73 | -0.10 | 6/6 | ALSQSVLYESRNKNSVA | NASQRES | QQYHRLPLS | GP_Gen |
| 74 | not detected | 0/6 | NLVEMEGTNQTAIGNIA | SVDQRMS | QQYQRLPLI | En_Gibbs |
| 75 | -0.11 | 6/6 | KSSISNLEESRNKNSVA | EASTRES | QQYHRLPLS | GP_HC |
| 76 | 2.08 | 1/6 | KLLQEVTGHSRNRNSVA | HNSTRED | QQYDRLPLA | En_HC |
| 77 | -0.30 | 6/6 | KLSQSVEQLSRNKNSVA | NASQREV | QQYHRLPLS | GP_Gibbs |
| 78 | 1.38 | 6/6 | KLNEDVGNHTHDQKNVA | GESRVDR | QQYAHLPLS | En_Gibbs |

Again, the first 6 entries without any signal:

CDR-L1	CDR-L2	CDR-L3	group	mean log10 Kd (nM)	detected
KTSQSALYEFRNKNSVA	WASTRES	QQYHRLHLS	Ctrl	not detected	0/6
SSSQSVLYESRNKNSVA	HASTRES	DQYHRLPLS	Ctrl	not detected	0/6
KSQQSVLYESRNFNSVA	HASTRED	QQYHRLPLS	GP_HC	not detected	0/6
KSSQSVLYESRNKNSVA	WASTNES	QQYARLPLS	Ctrl	not detected	0/6
KFHQSVLYESRNKNSVA	WASTRES	LQYAELPLS	Ctrl	not detected	0/6
NLVEMEGTNQTAIGNIA	SVDQRMS	QQYQRLPLI	En_Gibbs	not detected	0/6

From the AlphaSeq antibody data of Li et al. 2023 (doi:10.1038/s41467-023-39022-2), copy in the FLAb collection.